Earlier results as cited in patent publication US5952189A (priority 1997, dated 1999).

System: serine protease in T lymphocyte apoptosis
Settings: Sarin et al. 1993; cited from earlier work

Compound: O=S(=O)(F)Cc1ccccc1 [PMSF, phenylmethylsulfonylfluoride]
- Inhibition of serine protease in T lymphocyte apoptosis: inhibited
